This is a selection: effects in other tests are not listed, and their absence says nothing.
Key:
[1] = test system: mouse serum (TATP antibodies); assay: direct ELISA with mouse serum and TATP-peroxidase tracer (TATP calibration curve)
[2] = at room temperature; cited from earlier work
[3] = test system: mouse serum (TATP antibodies); assay: indirect ELISA with mouse serum and anti-mouse peroxidase tracer (TATP calibration curve)
[4] = test system: rabbit serum (TATP antibodies); assay: indirect ELISA with rabbit serum (TATP calibration curve)
[5] = test system: rabbit serum (TATP antibodies); assay: direct ELISA with rabbit serum and TATP-peroxidase tracer (TATP calibration curve)

Which results are given for CC1(C)OOC(C)(C)OOC(C)(C)OO1?
point of inflexion ([1]; 1:10,000 diluted mouse serum, 1:10,000 diluted TATP-peroxidase tracer, FIG. 3 curve a): 2.5 mg/L; Kd ([1]; read-out: mean antibody affinity, 1:10,000 diluted mouse serum, FIG. 3 curve a): 5.7 µM; vapor pressure [2]: about 7 Pa; point of inflexion ([3]; 1:10,000 diluted mouse serum, 1:5,000 diluted anti-mouse peroxidase tracer, FIG. 3 curve b): 5.6 mg/L; Kd ([3]; read-out: mean antibody affinity, 1:10,000 diluted mouse serum, FIG. 3 curve b): 13 µM; point of inflexion ([4]; 1:120,000 diluted rabbit serum, 1:30,000 diluted TATP-peroxidase tracer, FIG. 4 curve b): 0.98 µg/L; Kd ([4]; read-out: mean antibody affinity, 1:120,000 diluted rabbit serum, FIG. 4 curve b): 0.0035 µM; point of inflexion ([5]; 1:120,000 diluted rabbit serum, 1:30,000 diluted TATP-peroxidase tracer, FIG. 4 curve a): 1.6 µg/L; Kd ([5]; read-out: mean antibody affinity, 1:120,000 diluted rabbit serum, FIG. 4 curve a): 0.0057 µM
